Measured values as given in publication PMC8523698, “Preclinical characterization of an intravenous coronavirus 3CL protease inhibitor for the potential treatment of COVID19” (Nature Communications, 2021).
Where “and” joins values, the source holds several entries; their conditions need not be identical. Identical values can stand only once.

The chains behind the UniProt entries cited, without tags or fusion partners. Residues count along the entry.
UniProt Q86VL8, 1-566 isoform Q86VL8-3: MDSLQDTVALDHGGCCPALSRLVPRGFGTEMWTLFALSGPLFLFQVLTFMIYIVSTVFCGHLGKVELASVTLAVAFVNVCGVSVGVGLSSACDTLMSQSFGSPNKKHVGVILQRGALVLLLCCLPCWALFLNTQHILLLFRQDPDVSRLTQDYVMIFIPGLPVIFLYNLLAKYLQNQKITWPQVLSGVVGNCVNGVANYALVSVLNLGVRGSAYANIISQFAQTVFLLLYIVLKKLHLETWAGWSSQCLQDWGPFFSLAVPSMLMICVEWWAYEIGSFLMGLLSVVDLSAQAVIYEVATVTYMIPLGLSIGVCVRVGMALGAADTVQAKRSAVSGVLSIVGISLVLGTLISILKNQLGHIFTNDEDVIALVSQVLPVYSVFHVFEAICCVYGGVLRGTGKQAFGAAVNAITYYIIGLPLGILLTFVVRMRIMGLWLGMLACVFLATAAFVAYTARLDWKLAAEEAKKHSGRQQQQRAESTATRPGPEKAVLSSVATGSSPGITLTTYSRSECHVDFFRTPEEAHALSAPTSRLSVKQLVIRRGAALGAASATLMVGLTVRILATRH

Legend:
Experiment in all cases: Transporter inhibition using transfected HEK293 cells
MATE2K = biological target: T1, MATE2K (Homo sapiens, UniProt Q86VL8); format: in vitro ADME; settings: uptake of [14C]-metformin by MATE2K, single replicates
T1 construct: expressed in transfected cells; host or cells: HEK293

OAT1 = biological target: T2, OAT1 (Homo sapiens, UniProt Q4U2R8); settings: uptake of [3H]-PAH by OAT1
T2 sequence (Q4U2R8 1-563): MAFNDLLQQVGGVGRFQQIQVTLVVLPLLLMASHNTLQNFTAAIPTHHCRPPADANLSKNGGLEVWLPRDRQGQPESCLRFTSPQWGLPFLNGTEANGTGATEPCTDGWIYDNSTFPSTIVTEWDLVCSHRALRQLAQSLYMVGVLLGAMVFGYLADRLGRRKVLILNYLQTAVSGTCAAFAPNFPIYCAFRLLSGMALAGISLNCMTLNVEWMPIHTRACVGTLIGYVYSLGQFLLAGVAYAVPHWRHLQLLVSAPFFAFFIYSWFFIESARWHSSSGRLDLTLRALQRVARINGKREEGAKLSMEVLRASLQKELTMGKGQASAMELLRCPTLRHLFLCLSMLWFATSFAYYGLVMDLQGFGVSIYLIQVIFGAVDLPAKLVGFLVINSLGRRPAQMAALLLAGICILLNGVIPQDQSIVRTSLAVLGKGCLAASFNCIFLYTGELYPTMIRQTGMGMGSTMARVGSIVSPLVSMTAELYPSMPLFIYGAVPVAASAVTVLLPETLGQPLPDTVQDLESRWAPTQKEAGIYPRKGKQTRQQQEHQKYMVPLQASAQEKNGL

OCT2 = biological target: T3, OCT2 (Homo sapiens, UniProt O15244); settings: uptake of [14C]-metformin by OCT2, single replicates
T3 sequence (O15244 1-555): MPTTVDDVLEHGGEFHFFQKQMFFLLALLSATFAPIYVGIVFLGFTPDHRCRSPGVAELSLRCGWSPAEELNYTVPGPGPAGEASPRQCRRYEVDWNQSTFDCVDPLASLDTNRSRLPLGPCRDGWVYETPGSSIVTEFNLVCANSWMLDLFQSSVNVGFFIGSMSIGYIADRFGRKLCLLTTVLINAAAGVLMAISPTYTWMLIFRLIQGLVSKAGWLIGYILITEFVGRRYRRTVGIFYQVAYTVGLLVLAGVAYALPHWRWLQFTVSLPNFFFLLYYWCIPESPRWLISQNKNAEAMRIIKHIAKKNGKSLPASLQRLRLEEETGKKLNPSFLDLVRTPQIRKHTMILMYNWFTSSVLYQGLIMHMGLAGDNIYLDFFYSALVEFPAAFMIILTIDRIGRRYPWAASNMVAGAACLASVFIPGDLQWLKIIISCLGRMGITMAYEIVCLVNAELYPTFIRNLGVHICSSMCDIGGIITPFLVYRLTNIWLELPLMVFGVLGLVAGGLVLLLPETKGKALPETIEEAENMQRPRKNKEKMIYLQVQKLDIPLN

MATE1 = biological target: T4, MATE1 (Homo sapiens, UniProt Q96FL8); settings: uptake of [14C]-metformin by MATE1, single replicates
T4 sequence (Q96FL8 1-570): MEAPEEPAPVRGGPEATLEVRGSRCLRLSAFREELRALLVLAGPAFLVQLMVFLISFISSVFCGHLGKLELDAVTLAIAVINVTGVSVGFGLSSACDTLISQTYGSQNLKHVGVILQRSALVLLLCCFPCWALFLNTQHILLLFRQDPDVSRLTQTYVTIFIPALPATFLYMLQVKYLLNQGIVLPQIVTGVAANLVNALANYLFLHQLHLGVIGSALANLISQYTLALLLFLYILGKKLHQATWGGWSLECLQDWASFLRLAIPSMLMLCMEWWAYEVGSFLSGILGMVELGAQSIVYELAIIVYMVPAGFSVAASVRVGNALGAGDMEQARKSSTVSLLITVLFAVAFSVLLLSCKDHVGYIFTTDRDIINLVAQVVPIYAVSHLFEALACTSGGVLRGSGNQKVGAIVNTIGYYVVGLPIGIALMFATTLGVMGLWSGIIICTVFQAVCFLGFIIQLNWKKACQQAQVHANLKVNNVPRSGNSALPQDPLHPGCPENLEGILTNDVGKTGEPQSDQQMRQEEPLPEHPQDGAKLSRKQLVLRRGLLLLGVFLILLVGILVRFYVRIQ

[1] = inhibitor concentration 0.0732 uM
[2] = inhibitor concentration 0.2930 uM
[3] = inhibitor concentration 1.1719 uM
[4] = inhibitor concentration 4.6875 uM
[5] = inhibitor concentration 18.7500 uM
[6] = inhibitor concentration 300.0000 uM

SMILES	% Uptake Activity (MATE2K; [1])	% Uptake Activity (MATE2K; [2])	% Uptake Activity (MATE2K; [3])	% Uptake Activity (MATE2K; [4])	% Uptake Activity (MATE2K; [5])	% Uptake Activity (MATE2K; [6])	% Uptake Activity (OAT1; inhibitor 0.0732 uM)	CPM (OAT1; inhibitor 0.0732 uM)	% Uptake Activity (OAT1; inhibitor 0.2930 uM)	CPM (OAT1; inhibitor 0.2930 uM)	% Uptake Activity (OAT1; inhibitor 1.1719 uM)	CPM (OAT1; inhibitor 1.1719 uM)	% Uptake Activity (OAT1; inhibitor 4.6875 uM)	CPM (OAT1; inhibitor 4.6875 uM)	CPM (OAT1; inhibitor 18.7500 uM)	CPM (OAT1; inhibitor 300.0000 uM)	% Uptake Activity (OCT2; [2])	% Uptake Activity (OCT2; [3])	% Uptake Activity (OCT2; [4])	% Uptake Activity (OCT2; [6])	other results
COc1cccc2[nH]c(C(=O)N[C@@H](CC(C)C)C(=O)N[C@@H](C[C@@H]3CCNC3=O)C(=O)COP(=O)(O)O)cc12 [PF-07304814]	89.770% and 92.902%	91.649% and 84.760% and 98.330%	92.693% and 86.848%	82.046% and 97.286% and 91.441%	92.484% and 95.825% and 87.056%	76.618% and 88.309% and 77.662%	95.69%	2351 CPM and 2203 CPM and 2217 CPM	105.64% and 99.21%	2443 CPM and 2297 CPM and 2375 CPM	97.63%	2265 CPM and 2261 CPM and 2365 CPM	105.94%	2450 CPM and 2375 CPM and 2370 CPM	2434 CPM and 2427 CPM and 2394 CPM	2140 CPM and 2162 CPM and 2113 CPM	105.911% and 108.085%	107.678% and 109.994%	105.525% and 105.627% and 106.866%	79.098% and 76.965% and 75.828%	% Uptake Activity (MATE1; [1]): 125.678% and 115.377%; % Uptake Activity (MATE1; [2]): 106.608% and 105.754%; % Uptake Activity (MATE1; [3]): 108.317% and 108.894%; % Uptake Activity (MATE1; [4]): 119.121% and 106.734%; % Uptake Activity (MATE1; [5]): 107.814% and 106.156%; % Uptake Activity (MATE1; [6]): 91.558% and 93.518% and 88.141%
COc1cccc2[nH]c(C(=O)N[C@@H](CC(C)C)C(=O)N[C@@H](C[C@@H]3CCNC3=O)C(=O)CO)cc12 [PF-00835231]	89.144% and 88.309% and 82.881%	75.783% and 79.749%	90.397% and 94.363% and 79.123%	117.745% and 88.935%	82.463% and 84.760% and 79.123%	37.161% and 37.370% and 34.238%	96.00% and 98.99%	2224 CPM and 2292 CPM and 2286 CPM	103.39% and 108.63%	2398 CPM and 2392 CPM and 2511 CPM	96.00% and 102.07%	2224 CPM and 2335 CPM and 2362 CPM	99.35% and 109.07%	2417 CPM and 2300 CPM and 2521 CPM	2453 CPM and 2432 CPM and 2475 CPM	2147 CPM and 2228 CPM and 2115 CPM	90.372% and 96.587%	89.681% and 92.220% and 101.584%	81.820% and 89.092% and 95.795%	76.092% and 75.036% and 82.714%	% Uptake Activity (OAT1; inhibitor 18.7500 uM): 106.08% and 107.04%; % Uptake Activity (OAT1; inhibitor 300.0000 uM): 92.62% and 96.18% and 91.21%; % Uptake Activity (OCT2; [1]): 82.815%; % Uptake Activity (OCT2; [5]): 90.311% and 123.136%; % Uptake Activity (MATE1; [1]): 101.859%; % Uptake Activity (MATE1; [2]): 91.784% and 92.362%; % Uptake Activity (MATE1; [3]): 105.553%; % Uptake Activity (MATE1; [4]): 103.166% and 111.935%; % Uptake Activity (MATE1; [5]): 82.513% and 84.925% and 83.116%; % Uptake Activity (MATE1; [6]): 40.653% and 36.131% and 35.653%
